Molecular target: T1, MDMX (Homo sapiens, UniProt O15151)
T1 sequence (O15151 1-490): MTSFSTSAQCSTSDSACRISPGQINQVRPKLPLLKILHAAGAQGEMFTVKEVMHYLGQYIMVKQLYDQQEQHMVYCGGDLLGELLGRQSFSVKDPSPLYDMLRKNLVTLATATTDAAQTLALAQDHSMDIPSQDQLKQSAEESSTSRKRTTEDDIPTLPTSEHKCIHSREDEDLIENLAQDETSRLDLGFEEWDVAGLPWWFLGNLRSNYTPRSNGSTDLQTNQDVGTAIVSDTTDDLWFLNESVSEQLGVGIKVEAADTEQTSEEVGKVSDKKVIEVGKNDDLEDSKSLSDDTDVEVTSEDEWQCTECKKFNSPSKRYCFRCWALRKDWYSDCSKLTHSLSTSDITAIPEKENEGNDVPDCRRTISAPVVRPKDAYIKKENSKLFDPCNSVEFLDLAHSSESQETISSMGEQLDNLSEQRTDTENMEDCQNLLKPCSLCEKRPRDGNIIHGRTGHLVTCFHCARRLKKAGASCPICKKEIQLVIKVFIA
Experiment: Binding affinity study (Table 14)

With “WT p53: wild type p53, comparator for binding to MDM2 and MDMX” the Kd was 0.48 µM.

From patent US10471120B2, “Peptidomimetic macrocycles and uses thereof” (AILERON THERAPEUTICS, INC., priority 2014, dated 2019)
